## Measured affinities in a library of Ab-14 heavy chain variants

Target peptide (SARS-CoV-2 spike, HR2 region): PDVDLGDISGINAS

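Phage display of a naive human antibody library on the peptide gave the parent. This is the validation round: designs drawn from the data on random variants, tested in the same kind of assay. Group labels follow the data file (Ctrl: baseline library sampled from a position-specific scoring matrix, with some repeated check sequences; Rand: our label for a block that the file lists under HC and that is probably the random mutants of the ten best first-round binders; En: ensemble of fine-tuned language models; GP: Gaussian process model; GPLM: also part of the Gaussian process libraries; HC: hill climbing; Gen: genetic algorithm; Gibbs: Gibbs sampling; a sequence that several methods proposed may carry one label only). The scFvs were displayed on barcoded MATa yeast, the peptide on MATalpha yeast. The frequency of each diploid, read from paired DNA barcodes, reflects how well the two displayed proteins bind. Read counts were normalised to the haploid input and turned into Kd by a linear fit to BCL2-family pairs of known affinity, for each replicate. There are six technical replicates.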

Ab-14 is the parent antibody, in scFv form: VH, then a 15-residue (Gly4Ser)3 linker, then VL. The light chain is unchanged in all variants.
VH: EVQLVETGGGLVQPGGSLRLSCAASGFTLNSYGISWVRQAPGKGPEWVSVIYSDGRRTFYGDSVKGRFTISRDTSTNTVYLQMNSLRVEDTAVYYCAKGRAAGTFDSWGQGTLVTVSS
VL: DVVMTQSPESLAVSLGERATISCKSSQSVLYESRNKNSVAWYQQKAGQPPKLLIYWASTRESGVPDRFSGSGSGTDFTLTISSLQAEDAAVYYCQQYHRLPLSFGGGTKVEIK

The parent's heavy chain CDRs are GFTLNSYGIS, VIYSDGRRTFYGDSVK, GRAAGTFDS; each variant's own CDRs replace them letter for letter. Variants here have at most six changes. Values are log10 of the apparent Kd in nM; lower means stronger binding. Replicates are averaged; those with no signal do not enter the mean. Where no diploid with the target was found in any replicate, the entry reads "nd": below detection, most likely a poor binder, though not proof of it. Values of this round are not directly comparable with the first-round values of the same sequences. Of ten entries with the parent sequence, four were seen in most replicates (averages 0.34 to 2.37), three in one and three in none, so single entries are noisy. Three control strains display no target. For all heavy chain designs, 1% of the pairings with them gave a signal, with a median of 2.08 and one signal in twenty below 0.84, so weak values seen in few replicates may be background. The authors' rule: three or more of the six replicates give a measured affinity, fewer mean a poor binder.

Variant GFTLNEYGIS, VIYSDGRRTFYGDSVK, GRAAGIFDS [Ctrl] gave nd (0 of 6 replicates).
Variant GFTLNSYGIS, VIYSDGRRTFYSDDVK, GEAAGTFDT [GP_Gen] gave 0.58 (6 of 6 replicates).
Variant QFTLNSYGIS, VIYSDWRRTFYQDSVL, GRAMGTFDL [Ctrl] gave nd (0 of 6 replicates).
Variant GFTLNSYGIS, VIYSDGIRLFYGDSVK, GRAAGTFDS [Ctrl] gave 1.88 (1 of 6 replicates).
Variant GFTLNSYGIS, VIYSDGRRTFYGDSVK, GQEAGTFDT [GPLM_Gen] gave 0.19 (6 of 6 replicates).
Variant GFTLNSYGIQ, VIYSDGRRTFYADSVK, GRAIGTFDS [Ctrl] gave nd (0 of 6 replicates).
Variant GFSLNSYGIS, VIYSDGRRTFYADSVK, GDAAGTFDS [GPLM_Gen] gave 0.78 (6 of 6 replicates).
Variant GFTLNSYGIS, VIYSDGRRTFYGDAVK, GQTAGTFDS [GP_Gibbs] gave 1.15 (6 of 6 replicates).
Variant GFSLNSYGIS, VIYSDGRRTFYVDSVK, GQAAGTFDS [GPLM_Gen] gave 0.55 (6 of 6 replicates).
Variant GFTLNSYGIS, VIYSDGLRTFYGDSVK, GRVAGTFDS [GPLM_Gen] gave 1.65 (6 of 6 replicates).
Variant GFDLNMYGIS, VIYSDGRRTMYGDSVK, GRTAGTFDS [GP_Gen] gave 0.72 (6 of 6 replicates).
Variant GFTLNSYGIS, VIYSDGRRTFYSDQVK, GKEAGTFDS [GP_Gibbs] gave 1.17 (6 of 6 replicates).
Variant GFTLNSYGIS, VIYSDGRRTFYGDSVK, GNAAGTFNS [Ctrl] gave 2.66 (6 of 6 replicates).
Variant GFTLNSEGIS, VIYRDGRRTFYADSVK, GRAAKTFDS [Ctrl] gave nd (0 of 6 replicates).
Variant GFNLNSYGIS, VIYSDGRRTFYADDVK, GRQAGTFDS [GP_Gen] gave 0.12 (6 of 6 replicates).
Variant GFTLESYGIS, VIYSDGRRTFYGDSVK, GRAAGTFTK [GP_HC] gave nd (0 of 6 replicates).
Variant GFSLNSYGIS, VIYSDGRRTFYGDSVK, GQEAGTFDD [GP_Gibbs] gave 0.45 (6 of 6 replicates).
Variant GFQLNEYGIS, VIYSDGRRTFYSDSVK, GRAAGKFDS [GPLM_HC] gave nd (0 of 6 replicates).
Variant GFTINSYGIS, VIYSDGRRTFYGDSVK, GSAAGTFDS [Ctrl] gave 1.96 (6 of 6 replicates).
Variant GFSLNSYGIS, VIYSDGRRTFYIDSVK, GHAAGTFDD [GPLM_Gibbs] gave 1.80 (5 of 6 replicates).
Variant GFTLNSYGIS, VIYSDGRRTFYKNSVK, GDAAGTFDS [Ctrl] gave 1.64 (4 of 6 replicates).
Variant GFDLNSYGIS, VIYSDGRRTFYGDSVK, GRAAGSFNV [GP_HC] gave 1.38 (1 of 6 replicates).
Variant GFDLEEYGIS, VIYSDGRRTFYGDSVK, GIAAGTFDS [Ctrl] gave 0.22 (4 of 6 replicates).
Variant GFTLNSYGIS, VIYSDGRRTFYGDSVK, GQAAGTFDL [GPLM_Gen] gave 1.34 (1 of 6 replicates).
Variant GFTLNSQGIS, VIYSDGRRTFYGDSVK, GRFHGPFWS [Ctrl] gave nd (0 of 6 replicates).
Variant GFSLNEYGIS, VIYSDGRRTFYGDSVK, GQAAGTFDA [GPLM_Gen] gave 0.22 (6 of 6 replicates).
Variant GFTINSYGIS, VIYSDGRRTFYTDSVK, GRAAGTFDL [Ctrl] gave 1.53 (2 of 6 replicates).
Variant GFTNNSYGIS, VIYSDGRRLFYGDSVK, CRAADTFDS [Ctrl] gave nd (0 of 6 replicates).
Variant GFTLESYGIS, VIYSDGRRTFYSDSVK, GRAAGTFDS [GPLM_Gen] gave 0.42 (3 of 6 replicates).
Variant GFWLNEYGIS, VIYSDGRRTFYTDSVK, GREAGTFDV [GP_HC] gave 0.63 (6 of 6 replicates).
Variant GFVLNSYGIS, VIYFDGQRTFYVDSVK, GRAAGWFNS [Rand] gave nd (0 of 6 replicates).
Variant GFSLNAYGIS, VIYSDGRRTFYGDSVK, GEAAGTFDS [GPLM_Gen] gave 0.33 (6 of 6 replicates).
Variant GFTLNSYGIS, VIYADGRRTFYGDSNK, GRQFGTNKS [Rand] gave nd (0 of 6 replicates).
Variant GFDLNEYGIS, VIYADGRRTAYTDSVK, GEAAGTFDS [En_HC] gave -1.14 (6 of 6 replicates).
Variant GFTLNSYGIS, VIYSDGMRTFYIDSVK, GRAAGTFDS [Ctrl] gave 1.85 (4 of 6 replicates).
Variant GFVLNSYGIS, VIYADGRRTFYGDSVK, GREAGTFDS [GP_HC] gave 0.73 (6 of 6 replicates).
Variant GFTLNSYGIS, VIYSDGRRTFYADSVK, GRTAGTFDT [GPLM_Gen] gave 1.76 (5 of 6 replicates).
Variant GFTLNLAGIS, VIYSDGRRTWYQDSVK, GRAAGTFDS [Ctrl] gave nd (0 of 6 replicates).
Variant GFSLNEYGIS, VIYSDGRRTFYGDHVK, GRHAGTFDS [GP_Gibbs] gave 0.87 (6 of 6 replicates).
Variant GFTLNSYGIS, VIYSDGRRTFYGDSVK, GRVAKTFDS [Ctrl] gave nd (0 of 6 replicates).
Variant GFTLNSFGIS, VIYSDGRRTFYGDSVK, GRLAGTKDS [Ctrl] gave nd (0 of 6 replicates).
Variant GNTLNDYGIS, VIYSDGRRTMYIDSVK, GRAAGTFDS [GP_HC] gave 1.50 (1 of 6 replicates).
Variant GFELNEYGIS, VIYSDGRRTFYDDSVK, GRTAGTFDS [GP_Gen] gave 0.54 (6 of 6 replicates).
Variant GFTLCSYGIS, VIYSDGRRTAYGDSVK, GRAAGTPDS [Ctrl] gave nd (0 of 6 replicates).
Variant GFDLNSYGIS, VIYSDGRRTFYGDSHK, GRAAGWFGS [Rand] gave nd (0 of 6 replicates).
Variant GFTLESYGIS, VIYSDGRRTFYGDSVK, GQEAGTFDT [GP_Gen] gave 0.75 (6 of 6 replicates).
Variant GFTLDSYGIS, VIYSDGRRTFYDDSVK, GQTAGTFDS [GP_HC] gave 0.58 (1 of 6 replicates).
Variant GFSLNEYGIS, VIYSDGRRTFYQDSVK, GPAAGTFDR [GP_HC] gave 1.82 (6 of 6 replicates).
Variant GFDLNEYGIS, VIYADGRRTFYVDSVK, GENAGTFDS [En_HC] gave -0.24 (6 of 6 replicates).

The measurements come from Li et al. 2023 (doi:10.1038/s41467-023-39022-2) through the FLAb antibody collection.